# Settings: DLS at 20° C.
substance,measurement,value
tocopheryl polyethylene glycol succinate [TPGS],average (mean) particle size (diameter),8.82 nm
same,polydispersity index (PI),0.047
